Laboratory results from ChEMBL document CHEMBL5385906, “Discovery of a Potent, Selective, and Orally Bioavailable Tool Compound for Probing the Role of Lysophosphatidic Acid Type 2 Receptor Antagonists in Fibrotic Disorders” (J Med Chem, 2023).

Key:
in vitro [1] = details: C57BL/6J, mouse, liver microsomes
in vitro [2] = details: human, liver microsomes, CLH
in vitro [3] = details: human, Caco-2
in vitro [4] = details: human, Caco-2; remark: listed apart in the source
in vivo [5] = details: C57BL/6J, mouse, po, 30 mg/kg
in vivo [6] = test: in vivo
in vivo [7] = test: in vivo; remark: listed apart in the source
in vivo [8] = test: in vivo; remark: listed apart in the source
in vivo [9] = test: in vivo; remark: listed apart in the source
in vivo [10] = details: C57BL/6J, mouse, po, 30 mg/kg; remark: listed apart in the source
in vitro [11] = details: mouse, lungs
in vitro [12] = details: mouse, plasma
in vivo [13] = details: C57BL/6J, mouse, po, 30 mg/kg; remark: listed apart in the source
in vitro [14] = details: human, plasma
in vivo [15] = test: in vivo; remark: listed apart in the source
in vivo [16] = details: C57BL/6J, mouse, po, 30 mg/kg; remark: listed apart in the source
in vivo [17] = test: in vivo; remark: listed apart in the source
in vivo [18] = test: in vivo; remark: listed apart in the source
in vivo [19] = test: in vivo; remark: listed apart in the source

| SMILES | microsomal CLint at 0.75 h, 0.5 µM (in vitro [1]) [µL/min/mg] | microsomal CLint at 0.75 h, 0.5 µM (in vitro [2]) [µL/min/mg] | also measured |
| --- | --- | --- | --- |
| Cc1csc2c(N[C@@H](C)CN3CCN(S(=O)(=O)c4ccc(Cl)c(C(F)(F)F)c4)CC3)ncnc12 | 1000 | 631 | – |
| COC(=O)Nc1nc(C)c(S(=O)(=O)N2CCN(C[C@H](C)Nc3ncnc4c(C(F)(F)F)cccc34)CC2)s1 | 250 | 97 | Papp A→B at 1 h, 10 µM (in vitro [3]): 7.37 ×10⁻⁶ cm/s; Papp B→A at 1 h, 10 µM (in vitro [4]): 9.43 ×10⁻⁶ cm/s |
| Cc1csc2c(N[C@@H](C)CN3CCN(S(=O)(=O)c4cnc(-c5ccccc5)s4)CC3)ncnc12 | 343 | 117 | – |
| COC(=O)Nc1nc(C)c(S(=O)(=O)N2CCN(C[C@H](C)Nc3ncnc4c(-c5ccc(F)c(CN(C)C)c5)cccc34)CC2)s1 | 21 | 19 | half-life (in vivo [5]): 1.87 h; Cmax (in vivo [6]): 17800 ng/mL; Cmax (in vivo [7]): 27300 ng/mL; AUC(0-t) (in vivo [8]): 158000 ng·h/mL; AUC(0-t) (in vivo [9]): 149000 ng·h/mL; Papp A→B at 1 h, 10 µM (in vitro [3]): 1.43 ×10⁻⁶ cm/s; Fa (in vivo [10]): 77%; Papp B→A at 1 h, 10 µM (in vitro [4]): 5.13 ×10⁻⁶ cm/s; fraction unbound at 5 h, 5 µM (in vitro [11]): 0.0272; fraction unbound at 5 h, 0.5 µM (in vitro [12]): 0.0086; bioavailability (in vivo [13]): 68% |
| Cc1csc2c(N[C@@H](C)C(=O)N3CCN(S(=O)(=O)c4ccc(Cl)c(Cl)c4)CC3)ncnc12 | 993 | 260 | – |
| Cc1csc2c(N[C@@H](C)CN3CCN(S(=O)(=O)c4cc(Cl)c(Cl)s4)CC3)ncnc12 | 913 | 406 | – |
| Cc1csc2c(NC3(CN4CCN(S(=O)(=O)c5ccc(Cl)c(Cl)c5)CC4)CC3)ncnc12 | > 1070 | 738 | – |
| Cc1noc(-c2ccc(S(=O)(=O)N3CCN(C[C@H](C)Nc4ncnc5c(C(F)(F)F)cccc45)CC3)s2)c1C | 486 | 459 | Papp A→B at 1 h, 10 µM (in vitro [3]): 1.56 ×10⁻⁶ cm/s; Papp B→A at 1 h, 10 µM (in vitro [4]): 0.37 ×10⁻⁶ cm/s |
| Cc1noc(-c2ccc(S(=O)(=O)N3CCN(C[C@H](C)Nc4ncnc5c(C)csc45)CC3)s2)c1C | 1040 | 610 | – |
| Cc1csc2c(N[C@@H](C)CN3CCN(S(=O)(=O)Cc4ccc(Cl)c(Cl)c4)CC3)ncnc12 | > 1070 | > 1070 | – |
| Cc1csc2c(N3CCC[C@H]3CN3CCN(S(=O)(=O)c4ccc(Cl)c(Cl)c4)CC3)ncnc12 | > 1070 | 801 | – |
| COC(=O)Nc1nc(C)c(S(=O)(=O)N2CCN(C[C@H](C)Nc3ncnc4c(-c5cccnc5)cccc34)CC2)s1 | 256 | 345 | AUC(0-t) (in vivo [15]): 43600 ng·h/mL; half-life (in vivo [16]): 1.11 h; Cmax (in vivo [17]): 6100 ng/mL; fraction unbound at 5 h, 0.5 µM (in vitro [14]): < 0.01; Cmax (in vivo [18]): 35600 ng/mL; AUC(0-t) (in vivo [19]): 8450 ng·h/mL; Papp A→B at 1 h, 10 µM (in vitro [3]): 1.31 ×10⁻⁶ cm/s; Fa (in vivo [10]): 56%; Papp B→A at 1 h, 10 µM (in vitro [4]): 10 ×10⁻⁶ cm/s; fraction unbound at 5 h, 5 µM (in vitro [11]): 0.0285; fraction unbound at 5 h, 0.5 µM (in vitro [12]): 0.0025; bioavailability (in vivo [13]): 40% |
| Cc1csc2c(NC(C)(C)CN3CCN(S(=O)(=O)c4ccc(Cl)c(Cl)c4)CC3)ncnc12 | > 1070 | 386 | – |
| COC(=O)Nc1nc(C)c(S(=O)(=O)N2CCN(C[C@H](C)Nc3ncnc4c(-c5ccc(CN6CCCC6)cc5)cccc34)CC2)s1 | 143 | 19 | fraction unbound at 5 h, 0.5 µM (in vitro [14]): < 0.01; Papp A→B at 1 h, 10 µM (in vitro [3]): 0.18 ×10⁻⁶ cm/s; Papp B→A at 1 h, 10 µM (in vitro [4]): 10.6 ×10⁻⁶ cm/s; fraction unbound at 5 h, 5 µM (in vitro [11]): 0.0192; fraction unbound at 5 h, 0.5 µM (in vitro [12]): 0.0049 |
| CC(=O)Nc1ncc(S(=O)(=O)N2CCN(C[C@H](C)Nc3ncnc4c(C)csc34)CC2)s1 | 81 | 22 | – |
| CC(=O)Nc1nc(C)c(S(=O)(=O)N2CCN(C[C@H](C)Nc3ncnc4c(C)csc34)CC2)s1 | 146 | 117 | – |

Second part, led by results:

| microsomal CLint at 0.75 h, 0.5 µM (in vitro [1]) [µL/min/mg] | microsomal CLint at 0.75 h, 0.5 µM (in vitro [2]) [µL/min/mg] | SMILES | also measured |
| --- | --- | --- | --- |
| > 1070 | 360 | COC(=O)c1cccc2c(N[C@@H](C)CN3CCN(S(=O)(=O)c4ccc(Cl)c(Cl)c4)CC3)ncnc12 | – |
| 32 | 11 | COC(=O)Nc1nc(C)c(S(=O)(=O)N2CCN(C[C@H](C)Nc3ncnc4c(C(=O)N(C)C)cccc34)CC2)s1 | fraction unbound at 5 h, 0.5 µM (in vitro [14]): < 0.01; Papp B→A at 1 h, 10 µM (in vitro [4]): 12 ×10⁻⁶ cm/s; fraction unbound at 5 h, 5 µM (in vitro [11]): 0.306; fraction unbound at 5 h, 0.5 µM (in vitro [12]): 0.0213 |
| 998 | 463 | CC(=O)Nc1ccc(S(=O)(=O)N2CCN(C[C@H](C)Nc3ncnc4c(C)csc34)CC2)cc1Cl | – |
| 858 | 648 | C[C@@H](CN1CCN(S(=O)(=O)c2ccc(Cl)c(Cl)c2)CC1)Nc1ncnc2ccn(C)c12 | – |
| 693 | 258 | Cc1csc2c(N[C@@H](C)CN3CCN(S(=O)(=O)c4ccc(Cl)cc4)CC3)ncnc12 | – |
| 933 | 240 | CC[C@@H](CN1CCN(S(=O)(=O)c2ccc(Cl)c(Cl)c2)CC1)Nc1ncnc2c(C)csc12 | – |
| > 1070 | 469 | Cc1csc2c(N[C@@H](C)CN3CCN(S(=O)(=O)c4ccc(F)c(Cl)c4)CC3)ncnc12 | – |
| > 1070 | 379 | C[C@@H](CN1CCN(S(=O)(=O)c2ccc(Cl)c(Cl)c2)CC1)Nc1ncnc2c(C(F)(F)F)cccc12 | – |
| > 1070 | 532 | Cc1nc(NC(C)CN2CCN(S(=O)(=O)c3ccc(Cl)c(Cl)c3)CC2)c2scc(C)c2n1 (stereo in doubt; 36a) | – |
